The target in this assay is Tyrosine-protein kinase BTK (Homo sapiens, UniProt Q06187). Put plainly: Inhibition of full length N-terminal GST-tagged human BTK expressed in Sf21 cells assessed as ratio of Kinact/Ki using NH2-KKKAPFSWYLPEEG as substrate in presence of ATP measured for 2 hrs by microplate reader assay.

Amino acid sequences for entries named in this document (tags omitted). A change or cut given only in a name is not applied to a line headed by its entry.
UniProt Q06187: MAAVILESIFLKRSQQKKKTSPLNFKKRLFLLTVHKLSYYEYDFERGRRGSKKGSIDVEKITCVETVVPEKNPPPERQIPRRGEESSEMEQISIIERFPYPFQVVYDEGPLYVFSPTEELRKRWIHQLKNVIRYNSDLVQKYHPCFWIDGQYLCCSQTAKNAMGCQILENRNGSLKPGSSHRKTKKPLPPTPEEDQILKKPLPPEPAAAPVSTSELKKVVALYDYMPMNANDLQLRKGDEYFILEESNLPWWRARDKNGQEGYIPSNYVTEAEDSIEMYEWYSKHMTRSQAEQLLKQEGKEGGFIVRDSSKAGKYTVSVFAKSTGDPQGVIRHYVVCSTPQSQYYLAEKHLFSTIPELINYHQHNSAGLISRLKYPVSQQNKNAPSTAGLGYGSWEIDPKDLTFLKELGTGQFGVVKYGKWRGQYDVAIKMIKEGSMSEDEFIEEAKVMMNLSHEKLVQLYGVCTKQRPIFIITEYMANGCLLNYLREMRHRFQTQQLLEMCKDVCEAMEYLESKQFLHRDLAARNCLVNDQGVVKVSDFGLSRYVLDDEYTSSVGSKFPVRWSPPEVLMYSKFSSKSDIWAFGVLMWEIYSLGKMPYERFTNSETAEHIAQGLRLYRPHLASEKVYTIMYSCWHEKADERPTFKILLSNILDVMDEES

The structures appear in SMILES notation.

Regarding `C=CC(=O)N1CC[C@@H](NC(=O)c2sc3nccc4c3c2NC(=O)N4c2ccc(Oc3ccccc3)cc2C)C1`, the Ratio turned out to be 15900 M⁻¹ s⁻¹.

Values taken from ChEMBL document CHEMBL5150028, “Discovery of JNJ-64264681: A Potent and Selective Covalent Inhibitor of Bruton's Tyrosine Kinase” (J Med Chem, 2022).
